The values below come from patent US20200002670A1, “Generation of Endocrine Progenitor Cells from Human Pluripotent Stem Cells Using Small Molecules” (Novo Nordisk A/S, priority 2013, published 2020).

Several values for one entry are separate records, joined by “and”; a condition that tells them apart may be missing. Equal values may be shown once.

The subject of the assay is pancreatic endoderm cells. In words: NGN3/NKX2.2 double positive cells by immunostaining and InCell imaging after PE to EP differentiation. Format: cell-based, human. The protocol: After three days of EP differentiation, at EP day 4, media were aspirated followed by fixation of the cells at room temperature for 30 min with 4% paraformaldehyde (VWR, 97.131.000). Cells were washed with PBS and permeabilized with 0.5% Triton X-100 (Sigma, 9002-93-1) for 10 min, washed and blocked in 0.5% TNB-buffer (Perkin Elmer) for 30 min at room temperature. Primary antibodies, sheep anti-NGN3 (R&D systems #AF3444) and rabbit anti-NKX2.2 (Sigma #HPA003468) were diluted 1:1000 and 1:500, respectively, in 0.1% Triton X-100 in PBS and added to each well for overnight incubation at 4° C. Cells were washed three times with PBS. […] The total cell number based in the DAPI counterstaining and the number of NGN3/NKX2.2 double positive cells was determined using InCell Developer Toolbox 1.8 (GE Healthcare). The fraction of NGN3/NKX2.2 double positive cells were quantified using the InCell developer toolbox software (GE Healthcare) and normalized to the combined protocol K&N (example 2) on each plate and the % effect was calculated (% effect NGN3/NKX2.2 double positive=((S−Sneg)/(|Spos−Sneg|))*100). […]
Imaging was performed using the InCell Analyzer 2000 (GE Healthcare). […] The total cell number based in the DAPI counterstaining and the number of NGN3/NKX2,2 double positive cells was determined using InCell Developer Toolbox 1.8 (GE Healthcare). […]

For the molecule `O=[N+]([O-])c1ccc(-c2nc(-c3ccc(F)cc3)c(-c3ccncc3)[nH]2)cc1` [PD169316], the “% effect NGN3/NKX2.2 double positive cells” value was 154% and 152%.
